Test results as given in PubChem BioAssay (NCATS).
The entries are a selection whose mix differs from that of the whole data set. Results filed as inconclusive are left out. Calls of active or inactive are those of the source. Unless noted, the call rests on the fitted dose curve; in most records, active means well fitted curve in the direction sought with a large enough effect; inconclusive means small, poorly fitted or top-dose-only effect, or another doubt; inactive means no such curve, though single readings can be large; an effect the other way counts as inactive or inconclusive.

The chains behind the UniProt entries cited, without tags or fusion partners. Where a name states a change or a piece, a line headed by the entry shows the natural chain unless it says otherwise.
UniProt Q99828: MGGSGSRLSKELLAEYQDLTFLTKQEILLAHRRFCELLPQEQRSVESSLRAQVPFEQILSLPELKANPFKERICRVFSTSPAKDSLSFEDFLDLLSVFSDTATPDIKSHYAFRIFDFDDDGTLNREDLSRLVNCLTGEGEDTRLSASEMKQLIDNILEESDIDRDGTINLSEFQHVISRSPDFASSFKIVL
UniProt P10635, whole entry, looked up: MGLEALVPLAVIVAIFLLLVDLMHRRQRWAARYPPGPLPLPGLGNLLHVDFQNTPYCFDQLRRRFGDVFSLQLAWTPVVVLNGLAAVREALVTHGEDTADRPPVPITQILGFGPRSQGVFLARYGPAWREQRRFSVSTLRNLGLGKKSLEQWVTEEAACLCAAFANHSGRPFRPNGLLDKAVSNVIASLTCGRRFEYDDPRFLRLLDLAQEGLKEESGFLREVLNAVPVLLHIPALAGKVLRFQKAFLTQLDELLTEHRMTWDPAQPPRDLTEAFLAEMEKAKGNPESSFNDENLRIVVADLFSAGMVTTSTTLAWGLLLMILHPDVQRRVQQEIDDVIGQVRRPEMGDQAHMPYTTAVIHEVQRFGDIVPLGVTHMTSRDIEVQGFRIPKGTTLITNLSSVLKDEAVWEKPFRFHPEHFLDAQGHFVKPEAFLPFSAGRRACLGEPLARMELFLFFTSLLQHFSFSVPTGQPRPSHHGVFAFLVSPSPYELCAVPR
UniProt P08684, whole entry, looked up: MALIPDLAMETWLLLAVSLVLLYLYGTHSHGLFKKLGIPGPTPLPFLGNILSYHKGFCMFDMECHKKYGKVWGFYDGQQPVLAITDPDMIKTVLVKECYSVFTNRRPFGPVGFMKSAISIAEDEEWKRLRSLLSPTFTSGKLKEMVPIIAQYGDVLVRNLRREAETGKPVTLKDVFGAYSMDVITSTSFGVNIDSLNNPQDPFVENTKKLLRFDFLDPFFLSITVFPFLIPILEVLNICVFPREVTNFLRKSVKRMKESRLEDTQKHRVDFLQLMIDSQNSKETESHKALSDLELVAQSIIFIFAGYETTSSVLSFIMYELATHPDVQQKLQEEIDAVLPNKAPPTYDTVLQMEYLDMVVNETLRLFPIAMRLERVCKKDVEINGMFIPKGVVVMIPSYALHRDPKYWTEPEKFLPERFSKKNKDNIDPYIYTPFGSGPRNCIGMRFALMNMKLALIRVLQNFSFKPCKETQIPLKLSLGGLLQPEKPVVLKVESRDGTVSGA
UniProt P07203, whole entry, looked up: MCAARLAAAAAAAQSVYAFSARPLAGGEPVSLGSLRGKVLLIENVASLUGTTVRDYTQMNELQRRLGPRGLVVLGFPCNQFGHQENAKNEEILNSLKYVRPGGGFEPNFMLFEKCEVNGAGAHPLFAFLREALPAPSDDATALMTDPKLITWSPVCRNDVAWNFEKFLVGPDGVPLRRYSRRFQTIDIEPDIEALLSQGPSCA
UniProt P36969, whole entry, looked up: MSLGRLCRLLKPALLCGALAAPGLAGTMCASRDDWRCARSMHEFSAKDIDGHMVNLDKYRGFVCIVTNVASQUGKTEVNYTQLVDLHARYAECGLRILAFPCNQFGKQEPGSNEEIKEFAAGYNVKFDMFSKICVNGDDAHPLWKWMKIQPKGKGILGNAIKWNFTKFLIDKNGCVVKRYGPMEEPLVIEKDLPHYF

Columns and labels:
[1] = qHTS to identify inhibitors of the type 1 interferon - major histocompatibility complex class I in skeletal muscle: primary screen against the NCATS Mechanism Interrogation Plate v5.0 (MIPE) Libary (AID 1347411); details: iHSKM cells + IFN-b, HiBiT-tagged MHC-I luminescence, 24 h; at 45.8 µM (top of the series);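 further: plate controls were vehicle for no effect and reference inhibitor for full effect; nearly all actives have a fitted effect of over 65% in size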
[2] = target: Calcium and integrin-binding protein 1 (Homo sapiens) (UniProt Q99828); test: Primary qHTS for Identification of Calcium Integrin Binding Protein 1 (CIB1) Competitor (AID 1508620); details: CIB1-GST / FITC-alphaIIb peptide fluorescence polarization; at 114 µM (top of the series) unless noted;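 further: GST tagged CIB1 binding a fluorescein labelled alphaIIb integrin peptide tracer; top concentration of the series differs between compounds; on the % scale 0 is the no-effect control and ±100 the full control effect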
[3] = target: Cytochrome P450 2D6 (Homo sapiens) (UniProt P10635); test: Cytochrome P450 family 2 subfamily D member 6 (CYP2D6) small molecule antagonists: luciferase biochemical (cell-free) qHTS assay (AID 1645840; active means well fitted curve in the direction sought with a large enough effect in the repeat runs; an effect the other way counts as inactive or inconclusive; further: on the % scale 0 is the no-effect control and ±100 the full control effect; nearly all actives have a fitted effect of over 55% in size)
How it was run: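 P450-Glo luminescent screen: recombinant CYP2D6 enzyme–proluciferin substrate mix preincubated with compound 10 min at room temperature, then NADPH regeneration added for 1 h at room temperature. Detection reagent added for 20 min; luciferin light read as relative luminescence units.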

[4] = target: Cytochrome P450 3A4 (Homo sapiens) (UniProt P08684); test: Cytochrome P450 family 3 subfamily A member 4 (CYP3A4) small molecule antagonists: luciferase qHTS assay (AID 1645841; active means well fitted curve in the direction sought with a large enough effect in the repeat runs; an effect the other way counts as inactive or inconclusive; further: nearly all actives have a fitted effect of over 45% in size)
[5] = target: Glutathione peroxidase 1 (Homo sapiens) (UniProt P07203); test: Primary qHTS Assay for Inhibitors of Recombinant Selenoprotein Glutathione Peroxidase 1 (GPX1) (AID 1845191); details: recombinant GPX1, GR-coupled NADPH fluorescence, 15 min; activity, negative = inhibition: at 48.8 µM (top of the series); further: nearly all actives have a fitted effect of over 65% in size
How it was run: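 GR-coupled assay: compounds preincubated 30 min at room temperature with GPX1, then reaction started with CHP; final 10 nM GPX1, 1 mM GSH, 0.5 mM CHP, 0.5 mM NADPH, 100 nM GR, 0.01% BSA, pH 7.5 Tris buffer. NADPH fluorescence (340/450 nm) read at 0 and 15 min.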

[6] = target: Phospholipid hydroperoxide glutathione peroxidase GPX4 (Homo sapiens) (UniProt P36969); test: Primary qHTS Assay for Inhibitors of Recombinant Selenoprotein Glutathione Peroxidase 4 (GPX4) (AID 1845192); details: recombinant GPX4, GR-coupled NADPH fluorescence, 15 min; activity change, negative = inhibition: at 50 µM (top of the series); further: on the % scale 0 is the no-effect control and ±100 the full control effect; nearly all actives have a fitted effect of over 65% in size
How it was run: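 GR-coupled assay: recombinant GPX4 preincubated 30 min with compound at room temperature; final 200 nM GPX4, 1 mM GSH, 0.5 mM cumene hydroperoxide, 0.5 mM NADPH, 100 nM GR, 0.01% BSA, pH 7.5 Tris. NADPH fluorescence (340/450 nm) read at 0 and 15 min.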

[7] = target: Luciferin 4-monooxygenase (Photinus pyralis) (UniProt P08659); test: Primary firefly luciferase (FLuc) qHTS assay for identification of artifact compounds. (AID 1845220); details: purified firefly luciferase, luminescence, 5 min; activity change, negative = inhibition: at 54.1 µM (top of the series);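 further: plate controls were DMSO vehicle for no effect and no enzyme for full effect; nearly all actives have a fitted effect of over 60% in size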
How it was run: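 Titrated compounds were incubated 15 min at RT, protected from light, with luciferin and ATP at 10 uM; reaction started with 10 nM FLuc, luminescence imaged at 5 min, and concentration-response fitted by Hill equation.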

[8] = Primary fluorescence-based thiol-reactive (MSTI) qHTS assay for identification of artifact compounds. (AID 1845221); details: MSTI thiol-reactivity probe, 1 h; at 53.8 µM (top of the series);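 further: thiol-reactive compounds lower the probe fluorescence signal; nearly all actives have a fitted effect of over 65% in size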
How it was run: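 Thiol-reactive compounds detected by quenching of 4 uM MSTI fluorescence (525/598 nm) after 1 h room-temperature dark incubation in PBS pH 7.4, 2% DMSO. qHTS titration; percent inhibition Hill-fitted against Acetyl-MSTI/MSTI controls.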

[9] = tested on: Nanoluciferase (engineered Oplophorus gracilirostris luciferase); test: Primary Nanoluciferase (NLuc) qHTS assay for identification of artifact compounds. (AID 1845222); details: NLuc-conditioned medium, Nano-Glo luminescence, 5 min; at 54.1 µM (top of the series);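 further: NLuc secreted into diluted conditioned medium of S16 cells; 0% = DMSO and -100% = no enzyme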
How it was run: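 qHTS format, against NLuc in S16 cell-conditioned medium. Nano-Glo substrate 1:100 was added after 15 min at room temperature. Luminescence was taken after a further 5 min.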

[10] = Primary redox qHTS assay for identification of artifact compounds. (AID 1845223); details: Amplex Red/HRP redox cycling with DTT, fluorescence; at 53.8 µM (top of the series);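 further: 0% = DMSO and 100% = reference compound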
How it was run: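 Amplex Red (25 uM) and HRP (250 mU/mL) in HBSS, with compounds for 15 min, then 250 uM DTT for 30 min, room temperature, dark. Fluorescence 525/598 nm read; normalized to DMSO and 10 uM DA3003; Hill fit.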

[11] = qHTS drug screen for cell cycle checkpoint inhibitors in PARPi-resistant BRCA-mutant ovarian cancer cell lines. (AID 1963452; calls by dose curve); details: PEO1/OlaR viability, CellTiter-Glo luminescence, 96 h; stronger effect = lower value
How it was run: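 PEO1, PEO4 and PEO1/OlaR ovarian cancer cells, 600 per well, exposed 96 h at 37C to a dilution series. Viability read by CellTiter-Glo luminescence, normalized to DMSO and empty wells; activity summarized as Z-AUC.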

CRL-7250 = normal cell line; test: Cytotoxic Profiling of Annotated Libraries Using Quantitative High-Throughput Screening (AID 1296008); details: Five cell lines viability, CellTiter-Glo ATP luminescence, 48-72 h; stronger effect = lower value; further: nearly all actives have a fitted effect of over 60% in size; further: potency means the concentration at half of the fitted maximal effect; on max response: on the % scale 0 is the no-effect control and ±100 the full control effect
HEK293 = test: as above; details: Five cell lines viability, CellTiter-Glo ATP luminescence, 48-72 h; max response: stronger effect = lower value
HaCat = test: as above; details: Five cell lines viability, CellTiter-Glo ATP luminescence, 48-72 h; stronger effect = lower value
KB-3-1 = test: as above; details: Five cell lines viability, CellTiter-Glo ATP luminescence, 48-72 h, stronger effect = lower value
NIH3T3 = test: as above; details: Five cell lines viability, CellTiter-Glo ATP luminescence, 48-72 h; stronger effect = lower value
C33A = test: Primary qHTS to identify gynecologic anti-cancer compounds using libraries of approved drugs and bioactive compounds (AID 1345084); details: Gynecologic cancer cell panel viability, ATPlite luminescence, 48 h; at 57.5 µM (top of the series) unless noted; further: on the % scale 0 is the no-effect control and ±100 the full control effect; nearly all actives have a fitted effect of over 55% in size
How it was run: (§1)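 Five-point cytotoxicity, 48 h drug exposure at 37 C, 5% CO2, on cells seeded 16 h beforehand. ATP content read by ATPlite luminescence.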

CAOV3 = test: as above; details: Gynecologic cancer cell panel viability, ATPlite luminescence, 48 h; at 57.5 µM (top of the series) unless noted
How it was run: as §1

CASKI = test: as above; details: Gynecologic cancer cell panel viability, ATPlite luminescence, 48 h; at 57.5 µM (top of the series) unless noted
How it was run: as §1

HeLa = test: as above; details: Gynecologic cancer cell panel viability, ATPlite luminescence, 48 h; at 57.5 µM (top of the series) unless noted
How it was run: as §1

OV90 = test: as above; details: Gynecologic cancer cell panel viability, ATPlite luminescence, 48 h; at 57.5 µM (top of the series) unless noted
How it was run: as §1

SKOV3 = test: as above; details: Gynecologic cancer cell panel viability, ATPlite luminescence, 48 h; at 57.5 µM (top of the series) unless noted
How it was run: as §1

Tov-21-G = test: as above; details: Gynecologic cancer cell panel viability, ATPlite luminescence, 48 h; at 57.5 µM (top of the series) unless noted
How it was run: as §1

Tov112D = test: as above; details: Gynecologic cancer cell panel viability, ATPlite luminescence, 48 h; at 57.5 µM (top of the series) unless noted
How it was run: as §1

CN(C)C1(c2ccccc2)CCC2(CC1)OCCc1c2[nH]c2ccc(F)cc12 (centres undefined)
active: Potency (HEK293) 411 nM
inactive: activity change, negative = inhibition [1] 18.6% | activity change, negative = inhibition [2] -4.57% | Potency [3] | Potency [4] | outcome [5] | activity change, negative = inhibition [6] -1.23% | activity change, negative = inhibition [7] -7.01% | activity change, negative = thiol reactive [8] -7.53% | activity, negative = inhibition [9] -6.59% | redox activity (% of DA3003) [10] -0.504% | Z-AUC [11] 0.158 | max response (CRL-7250) 1.33% | max response (HaCat) -13.1% | max response (KB-3-1) -30.5% | max response (NIH3T3) -4.8% | activity change, negative = cytotoxicity (C33A) 0.38% | activity change, negative = cytotoxicity (CAOV3) 24.4% | activity change, negative = cytotoxicity (CASKI) -23.2% | activity change, negative = cytotoxicity (HeLa) -27.7% | activity change, negative = cytotoxicity (OV90) -13.6% | activity change, negative = cytotoxicity (SKOV3) 0% | activity change, negative = cytotoxicity (Tov-21-G) 4.79% | activity change, negative = cytotoxicity (Tov112D) -28.8%
